This passage reports z-score results from PubChem BioAssay AID1141 (ChemBank, 2008).

The chains behind the UniProt entries cited, without tags or fusion partners.
UniProt P08659, whole entry, looked up: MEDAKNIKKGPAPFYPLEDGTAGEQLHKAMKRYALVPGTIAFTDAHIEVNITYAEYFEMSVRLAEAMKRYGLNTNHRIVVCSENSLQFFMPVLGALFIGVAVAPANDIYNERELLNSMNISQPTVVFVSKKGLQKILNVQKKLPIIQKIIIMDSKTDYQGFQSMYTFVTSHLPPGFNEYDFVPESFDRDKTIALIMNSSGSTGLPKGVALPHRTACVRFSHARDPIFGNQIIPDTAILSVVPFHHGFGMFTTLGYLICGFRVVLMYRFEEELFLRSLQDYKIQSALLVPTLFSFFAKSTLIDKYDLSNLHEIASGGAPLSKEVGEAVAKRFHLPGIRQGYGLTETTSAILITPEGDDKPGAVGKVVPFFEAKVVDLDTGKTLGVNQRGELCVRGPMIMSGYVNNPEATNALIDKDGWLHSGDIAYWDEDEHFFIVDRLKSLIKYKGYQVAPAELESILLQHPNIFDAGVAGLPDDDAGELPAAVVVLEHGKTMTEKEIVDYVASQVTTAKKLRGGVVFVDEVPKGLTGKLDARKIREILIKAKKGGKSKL

Molecules are shown by their SMILES. Only a part is listed here, and it is no random draw. Active and inactive are the calls of the source.

The experiment deals with Luciferin 4-monooxygenase (Photinus pyralis) (UniProt P08659). Nature of the experiment: inhibition of purified Photinus pyralis luciferase – biochemical, luminescence, purified enzyme, 2006 set, primary screen (AID 1141).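 Note: cell-free assay with purified firefly luciferase at 100 ng per well in PBS; test concentration not given here.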 As to conditions: purified firefly luciferase, SteadyGlo luminescence, 30 min; higher = more signal, called active from +8 up or from −8 down.
Take `COP(=O)(/N=C1/CC(c2ccc(CO)cc2)=CC(C2CC2)N1Cc1cc2c(cc1Br)OCO2)OC` (stereo not given): the z-score is inactive: -2.27.

On to `O=P(/N=C1/CC(CCCO)=CC(C2CC2)N1Cc1sc2ccccc2c1Cl)(Oc1ccccc1)Oc1ccccc1` (stereo not given), for which the z-score was inactive: -0.951.

As to `COP(=O)(/N=C1/CC(CCCO)=CC(c2ccc(CN3CCCC3)cc2)N1Cc1sc2ccccc2c1Cl)OC` (stereo not given), the z-score was inactive: -2.06.

`O=P(/N=C1/CC(c2ccc(CO)cc2)=CC(C2CC2)N1Cc1sc2ccccc2c1Cl)(Oc1ccccc1)Oc1ccccc1` (stereo not given): the z-score was inactive: -0.416.

As for `CN1/C(=N\P(=O)(Oc2ccccc2)Oc2ccccc2)CC(CCCO)=CC1C1CC1` (stereo not given), the z-score is inactive: -0.651.

Regarding `O=P(/N=C1/CC(CCCO)=CC(c2ccc(CN3CCCC3)cc2)N1Cc1sc2ccccc2c1Cl)(Oc1ccccc1)Oc1ccccc1` (stereo not given), the z-score is inactive: 0.48.

For `COP(=O)(/N=C1/CC(CCCO)=CC(c2cccs2)N1C)OC` (stereo not given), the z-score was inactive: -1.9.

Consider `COP(=O)(/N=C1/CC(CCCO)=CC(C2CC2)N1C)OC` (stereo not given), for which the z-score is inactive: -1.43.

With `COP(=O)(/N=C1/CC(CCCO)=CC(c2ccc(CN3CCCC3)cc2)N1C)OC` (stereo not given), the z-score was inactive: -1.58.

As to `COP(=O)(/N=C1/CC(CCCO)=CC(C)N1Cc1cccc(OC(F)(F)F)c1)OC` (stereo not given), the z-score was inactive: -2.06.

With `COP(=O)(/N=C1/CC(CCCO)=CC(C2CC2)N1Cc1sc2ccccc2c1Cl)OC` (stereo not given), the z-score was inactive: -2.88.

Take `COP(=O)(/N=C1/CC(c2ccc(CO)cc2)=CC(C2CC2)N1C)OC` (stereo not given): the z-score was inactive: -0.445.

Consider `O=P(/N=C1/CC(c2ccc(CO)cc2)=CC(C2CC2)N1Cc1cc2c(cc1Br)OCO2)(Oc1ccccc1)Oc1ccccc1` (stereo not given), for which the z-score is inactive: -0.0706.

Consider `O=P(/N=C1/CC(c2ccc(CO)cc2)=CC(c2cccs2)N1Cc1cccc(OC(F)(F)F)c1)(Oc1ccccc1)Oc1ccccc1` (stereo not given), for which the z-score was inactive: -1.38.

As for `COP(=O)(/N=C1/CC(c2ccc(CO)cc2)=CC(c2cccs2)N1C)OC` (stereo not given), the z-score is inactive: -2.06.

`CN1/C(=N\P(=O)(Oc2ccccc2)Oc2ccccc2)CC(CCCO)=CC1c1ccc(CN2CCCC2)cc1` (stereo not given): the z-score is inactive: -0.107.

As for `O=P(/N=C1/CC(CCCO)=CC(c2cccs2)N1Cc1cc2c(cc1Br)OCO2)(Oc1ccccc1)Oc1ccccc1` (stereo not given), the z-score is inactive: -1.08.

As for `COP(=O)(/N=C1/CC(CCCO)=CC(c2ccc(CN3CCCC3)cc2)N1Cc1cccc(OC(F)(F)F)c1)OC` (stereo not given), the z-score was inactive: -1.31.

With `CN1/C(=N\P(=O)(Oc2ccccc2)Oc2ccccc2)CC(c2ccc(CO)cc2)=CC1c1cccs1` (stereo not given), the z-score was inactive: -1.53.

With `COP(=O)(/N=C1/CC(c2ccc(CO)cc2)=CC(C2CC2)N1Cc1sc2ccccc2c1Cl)OC` (stereo not given), the z-score is inactive: -2.09.

Turning to `COP(=O)(/N=C1/CC(CCCO)=CC(C2CC2)N1Cc1cc2c(cc1Br)OCO2)OC` (stereo not given), the z-score is inactive: -1.1.

`CN1/C(=N\P(=O)(Oc2ccccc2)Oc2ccccc2)CC(CCCO)=CC1c1cccs1` (stereo not given): the z-score is inactive: 0.0671.

`COP(=O)(/N=C1/CC(CCCO)=CC(C2CC2)N1Cc1cccc(OC(F)(F)F)c1)OC` (stereo not given): the z-score was inactive: -1.43.

Turning to `O=P(/N=C1/CC(CCCO)=CC(C2CC2)N1Cc1cc2c(cc1Br)OCO2)(Oc1ccccc1)Oc1ccccc1` (stereo not given), the z-score was inactive: 0.352.

As to `COP(=O)(/N=C1/CC(CCCO)=CC(c2ccc(CN3CCCC3)cc2)N1Cc1cc2c(cc1Br)OCO2)OC` (stereo not given), the z-score was inactive: -2.11.

On to `O=P(/N=C1/CC(CCCO)=CC(c2ccc(CN3CCCC3)cc2)N1Cc1cc2c(cc1Br)OCO2)(Oc1ccccc1)Oc1ccccc1` (stereo not given), for which the z-score was inactive: 0.594.

Regarding `CC1C=C(CCCO)C/C(=N/P(=O)(Oc2ccccc2)Oc2ccccc2)N1Cc1cccc(OC(F)(F)F)c1` (stereo not given), the z-score was inactive: -0.364.

Take `O=P(/N=C1/CC(CCCO)=CC(c2cccs2)N1Cc1cccc(OC(F)(F)F)c1)(Oc1ccccc1)Oc1ccccc1` (stereo not given): the z-score was inactive: -1.99.

As for `CN1/C(=N\P(=O)(Oc2ccccc2)Oc2ccccc2)CC(c2ccc(CO)cc2)=CC1C1CC1` (stereo not given), the z-score is inactive: -1.19.

For `O=P(/N=C1/CC(CCCO)=CC(C2CC2)N1Cc1cccc(OC(F)(F)F)c1)(Oc1ccccc1)Oc1ccccc1` (stereo not given), the z-score was inactive: 0.185.
